Data taken from patent US20250059205A1, “Heterocyclic Compounds and Methods of Use” (AMGEN INC., priority 2021, published 2025).

Chains of the proteins cited; added tags and fusions are not shown. Residues count along the entry.
UniProt P01116, 1-188 isoform 2 G12D: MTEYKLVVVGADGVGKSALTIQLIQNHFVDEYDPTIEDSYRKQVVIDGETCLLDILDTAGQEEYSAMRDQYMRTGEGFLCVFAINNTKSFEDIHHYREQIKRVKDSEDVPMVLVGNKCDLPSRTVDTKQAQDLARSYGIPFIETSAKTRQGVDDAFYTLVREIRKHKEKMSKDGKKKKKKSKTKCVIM

Columns and labels:
[1] = biological target: His-tagged KRAS G12D protein (Homo sapiens, UniProt P01116, G12D); experiment: KRAS G12D TR-FRET Assay; assay type: binding; conditions: read-out: TR-FRET KRAS G12D IC50
[2] = tested on: Phosphorylation of ERK1/2 in A-427 cells; experiment: Phospho-ERK1/2 MSD Assay (A-427 cells)
[3] = tested on: Phosphorylation of ERK1/2 in AsPC-1 cells; experiment: Phospho-ERK1/2 MSD Assay (AsPC-1 cells); assay type: cell-based
[4] = tested form: bis(2,2,2-trifluoroacetate)
[5] = read-out: p-ERK (A427 cells) IC50, 2 h treatment, tested form: bis(2,2,2-trifluoroacetate)
[6] = read-out: p-ERK (AsPC-1 cells) IC50, 2 hours treatment, tested form: bis(2,2,2-trifluoroacetate)
[7] = read-out: p-ERK (A427 cells) IC50, 2 h treatment, tested form: TFA salt
[8] = read-out: p-ERK (AsPC-1 cells) IC50, 2 hours treatment, tested form: TFA salt

| SMILES | pIC50 [1, 4] | pIC50 [2, 5] | pIC50 [3, 6] | pIC50 ([1]; tested form: TFA salt) | pIC50 [2, 7] | pIC50 [3, 8] |
| --- | --- | --- | --- | --- | --- | --- |
| CCc1cc2c(N3C[C@H]4CC[C@@H](C3)N4)nc(OC[C@@]34CCCN3C[C@H](F)C4)nc2c(F)c1-c1cc(O)cc2ccccc12 | 8.30 | 7.48 | 6.90 |  |  |  |
| Cc1ccc2cnn(C)c2c1-c1ccc2c(N3C[C@H]4CC[C@@H](C3)N4)nc(OC[C@@]34CCCN3C[C@H](F)C4)nc2c1F |  |  |  | 7.38 | 5.50 | 5.50 |
| Cc1cc2cnn(C)c2c(-c2ccc3c(N4C[C@H]5CC[C@@H](C4)N5)nc(OC[C@@]45CCCN4C[C@H](F)C5)nc3c2F)c1C |  |  |  | 7.59 | 5.67 | 5.62 |
| Cc1cc2c(N3C[C@H]4CC[C@@H](C3)N4)nc(OC[C@@]34CCCN3C[C@H](F)C4)nc2c(F)c1-c1cc(O)cc2ccccc12 | 8.40 | 7.39 | 6.78 |  |  |  |
| C=Cc1cc2c(N3C[C@H]4CC[C@@H](C3)N4)nc(OC[C@@]34CCCN3C[C@H](F)C4)nc2c(F)c1-c1cc(O)cc2ccccc12 | 8.30 | 7.17 | 6.43 |  |  |  |
| CCc1cccc2cccc(-c3c(F)cc4c(N5[C@@H]6CC[C@H]5CNC6)nc(OC[C@@]56CCCN5C[C@H](F)C6)nc4c3F)c12 |  |  |  | 7.72 | 5.35 | 5.75 |

pIC50: −log10 of the molar value. Read-outs that look alike come from different tables or passages of the source.
